Patent US12590088B2 (dated 2026)

Protein sequences, listed by entry. Tags and fused reporters are not part of them. Lines headed by an entry give the natural chain unless they say otherwise; changes in a name come on top.
UniProt P29597: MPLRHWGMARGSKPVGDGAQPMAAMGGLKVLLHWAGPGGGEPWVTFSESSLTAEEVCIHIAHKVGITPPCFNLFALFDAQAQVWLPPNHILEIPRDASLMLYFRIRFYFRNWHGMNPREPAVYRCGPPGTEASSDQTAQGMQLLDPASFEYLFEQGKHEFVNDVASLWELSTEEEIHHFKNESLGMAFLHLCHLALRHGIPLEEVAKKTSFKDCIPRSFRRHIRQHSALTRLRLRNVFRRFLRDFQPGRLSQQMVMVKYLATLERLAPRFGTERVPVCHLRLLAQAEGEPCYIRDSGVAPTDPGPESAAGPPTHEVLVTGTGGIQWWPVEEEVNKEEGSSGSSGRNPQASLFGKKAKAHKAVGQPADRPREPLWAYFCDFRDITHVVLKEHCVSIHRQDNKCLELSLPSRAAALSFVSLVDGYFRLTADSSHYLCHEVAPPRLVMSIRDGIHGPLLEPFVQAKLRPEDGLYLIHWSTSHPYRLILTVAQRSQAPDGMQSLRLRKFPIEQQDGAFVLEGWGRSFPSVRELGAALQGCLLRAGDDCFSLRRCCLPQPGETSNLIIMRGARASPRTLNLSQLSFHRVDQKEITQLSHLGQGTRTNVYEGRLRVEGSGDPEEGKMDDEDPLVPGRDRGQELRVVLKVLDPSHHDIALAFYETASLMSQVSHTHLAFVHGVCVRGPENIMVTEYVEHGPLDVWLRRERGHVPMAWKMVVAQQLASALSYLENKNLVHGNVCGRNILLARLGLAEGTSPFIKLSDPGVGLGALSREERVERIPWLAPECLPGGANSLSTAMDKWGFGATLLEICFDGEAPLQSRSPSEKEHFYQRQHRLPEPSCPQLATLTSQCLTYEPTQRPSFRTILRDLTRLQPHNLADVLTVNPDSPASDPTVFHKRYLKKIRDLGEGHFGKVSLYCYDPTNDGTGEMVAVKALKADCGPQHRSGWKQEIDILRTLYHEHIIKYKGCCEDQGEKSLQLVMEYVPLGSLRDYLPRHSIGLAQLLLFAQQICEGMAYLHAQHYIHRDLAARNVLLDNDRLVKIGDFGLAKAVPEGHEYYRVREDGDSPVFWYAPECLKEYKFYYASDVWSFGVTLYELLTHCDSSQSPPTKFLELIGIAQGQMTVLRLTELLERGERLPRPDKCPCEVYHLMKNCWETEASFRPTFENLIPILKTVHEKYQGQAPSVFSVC
UniProt P23458: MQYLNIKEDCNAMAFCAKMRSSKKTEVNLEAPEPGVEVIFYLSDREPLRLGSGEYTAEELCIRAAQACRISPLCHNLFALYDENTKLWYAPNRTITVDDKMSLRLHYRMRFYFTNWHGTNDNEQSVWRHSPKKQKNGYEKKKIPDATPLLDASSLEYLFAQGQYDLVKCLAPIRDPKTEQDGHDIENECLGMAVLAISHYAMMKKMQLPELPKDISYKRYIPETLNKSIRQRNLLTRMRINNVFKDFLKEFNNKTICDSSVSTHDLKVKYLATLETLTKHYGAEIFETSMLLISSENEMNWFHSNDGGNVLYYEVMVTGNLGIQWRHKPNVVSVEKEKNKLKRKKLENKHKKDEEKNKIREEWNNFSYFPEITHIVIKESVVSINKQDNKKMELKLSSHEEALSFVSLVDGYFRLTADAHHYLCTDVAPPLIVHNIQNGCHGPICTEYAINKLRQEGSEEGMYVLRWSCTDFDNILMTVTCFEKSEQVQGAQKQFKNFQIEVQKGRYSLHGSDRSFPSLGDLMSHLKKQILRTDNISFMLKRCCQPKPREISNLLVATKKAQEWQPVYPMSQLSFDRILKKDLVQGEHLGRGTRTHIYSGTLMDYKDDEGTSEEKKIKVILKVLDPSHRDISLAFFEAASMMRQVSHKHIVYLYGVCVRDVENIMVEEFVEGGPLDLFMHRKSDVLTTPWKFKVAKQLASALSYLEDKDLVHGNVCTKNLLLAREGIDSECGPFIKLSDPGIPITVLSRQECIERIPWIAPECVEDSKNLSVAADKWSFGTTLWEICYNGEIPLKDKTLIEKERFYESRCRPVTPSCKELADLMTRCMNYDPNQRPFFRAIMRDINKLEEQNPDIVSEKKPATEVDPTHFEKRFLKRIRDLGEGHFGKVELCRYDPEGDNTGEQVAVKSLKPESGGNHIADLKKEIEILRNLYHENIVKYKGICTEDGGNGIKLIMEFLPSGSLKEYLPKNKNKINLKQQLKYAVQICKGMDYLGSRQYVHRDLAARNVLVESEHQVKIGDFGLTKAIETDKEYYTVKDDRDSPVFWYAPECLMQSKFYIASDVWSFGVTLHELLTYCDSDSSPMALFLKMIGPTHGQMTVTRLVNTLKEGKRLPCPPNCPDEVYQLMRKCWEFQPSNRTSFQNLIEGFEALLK
UniProt O60674: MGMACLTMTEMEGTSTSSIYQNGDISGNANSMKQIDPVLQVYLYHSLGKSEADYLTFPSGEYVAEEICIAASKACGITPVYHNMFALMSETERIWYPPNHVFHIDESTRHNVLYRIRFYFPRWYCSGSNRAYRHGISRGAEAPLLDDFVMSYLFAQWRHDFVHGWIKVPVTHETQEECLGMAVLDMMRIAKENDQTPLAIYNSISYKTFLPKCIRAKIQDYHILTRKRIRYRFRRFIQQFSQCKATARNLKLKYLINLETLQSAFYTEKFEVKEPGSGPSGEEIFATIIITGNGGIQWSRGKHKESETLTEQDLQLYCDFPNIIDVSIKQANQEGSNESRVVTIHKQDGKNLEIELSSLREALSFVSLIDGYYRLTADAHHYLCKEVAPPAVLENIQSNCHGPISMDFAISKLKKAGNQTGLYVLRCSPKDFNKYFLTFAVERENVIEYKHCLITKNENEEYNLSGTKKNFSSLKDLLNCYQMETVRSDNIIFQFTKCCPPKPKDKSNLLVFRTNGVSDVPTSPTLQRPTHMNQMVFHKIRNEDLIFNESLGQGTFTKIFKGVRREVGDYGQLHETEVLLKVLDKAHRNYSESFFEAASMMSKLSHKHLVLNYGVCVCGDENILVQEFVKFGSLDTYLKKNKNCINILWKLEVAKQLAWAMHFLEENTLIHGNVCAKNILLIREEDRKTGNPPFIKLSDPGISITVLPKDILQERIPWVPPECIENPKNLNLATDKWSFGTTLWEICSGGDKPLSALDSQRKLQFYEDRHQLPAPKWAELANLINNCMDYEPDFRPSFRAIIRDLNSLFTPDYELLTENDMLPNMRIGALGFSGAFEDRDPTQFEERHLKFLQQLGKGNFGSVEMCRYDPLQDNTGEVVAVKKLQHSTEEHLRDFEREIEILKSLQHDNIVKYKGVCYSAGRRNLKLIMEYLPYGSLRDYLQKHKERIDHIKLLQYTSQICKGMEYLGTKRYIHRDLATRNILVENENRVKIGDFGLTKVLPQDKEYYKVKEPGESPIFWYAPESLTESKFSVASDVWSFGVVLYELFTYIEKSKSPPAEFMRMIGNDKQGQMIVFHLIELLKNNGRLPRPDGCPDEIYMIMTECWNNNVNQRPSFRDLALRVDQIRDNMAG

Columns and labels:
TYK2 [1] = target: T1, TYK2 (Homo sapiens, UniProt P29597); assay: Cell-based assay on Janus kinase inhibitors, TYK2 (GI50); settings: read-out: GI50(μM) TYK2
JAK1 [2] = target: T2, JAK1 (Homo sapiens, UniProt P23458); assay: Cell-based assay on Janus kinase inhibitors, JAK1 (GI50); settings: read-out: GI50(μM) JAK1
TYK2 [3] = target: T1, TYK2; assay: TYK2 IC50 measurement
JAK1 [4] = target: T2, JAK1; assay: JAK1 IC50 measurement
JAK3 = target: T3, JAK3 (Homo sapiens, UniProt P52333); assay: JAK3 IC50 measurement
T3 sequence (P52333 1-1124): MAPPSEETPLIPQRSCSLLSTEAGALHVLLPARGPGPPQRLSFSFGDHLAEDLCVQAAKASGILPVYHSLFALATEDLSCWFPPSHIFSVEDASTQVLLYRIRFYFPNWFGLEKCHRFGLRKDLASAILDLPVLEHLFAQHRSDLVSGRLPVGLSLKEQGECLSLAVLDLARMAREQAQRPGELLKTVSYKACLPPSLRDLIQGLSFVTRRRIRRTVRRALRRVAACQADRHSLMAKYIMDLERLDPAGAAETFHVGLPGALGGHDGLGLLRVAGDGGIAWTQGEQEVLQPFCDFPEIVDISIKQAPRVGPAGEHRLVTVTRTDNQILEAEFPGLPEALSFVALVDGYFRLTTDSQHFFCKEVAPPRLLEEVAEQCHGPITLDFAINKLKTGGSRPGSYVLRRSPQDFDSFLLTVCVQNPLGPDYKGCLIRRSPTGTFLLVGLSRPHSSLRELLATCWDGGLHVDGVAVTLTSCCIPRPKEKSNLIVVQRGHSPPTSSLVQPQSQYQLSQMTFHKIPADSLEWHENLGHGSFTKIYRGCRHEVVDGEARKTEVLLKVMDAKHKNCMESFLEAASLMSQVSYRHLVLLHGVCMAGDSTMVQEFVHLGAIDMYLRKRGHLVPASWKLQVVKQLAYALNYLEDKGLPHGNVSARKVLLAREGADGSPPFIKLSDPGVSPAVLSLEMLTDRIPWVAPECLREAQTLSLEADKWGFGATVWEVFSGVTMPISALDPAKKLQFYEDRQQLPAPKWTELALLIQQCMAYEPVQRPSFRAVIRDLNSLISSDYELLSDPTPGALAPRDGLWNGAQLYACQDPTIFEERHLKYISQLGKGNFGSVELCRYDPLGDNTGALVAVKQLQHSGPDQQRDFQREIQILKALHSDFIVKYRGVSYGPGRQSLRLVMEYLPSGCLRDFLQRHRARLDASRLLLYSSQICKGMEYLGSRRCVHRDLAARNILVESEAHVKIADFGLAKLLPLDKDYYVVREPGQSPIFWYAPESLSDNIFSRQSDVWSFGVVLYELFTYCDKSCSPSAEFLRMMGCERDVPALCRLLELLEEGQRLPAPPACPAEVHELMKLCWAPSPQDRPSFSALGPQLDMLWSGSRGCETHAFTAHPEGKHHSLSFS

JAK2 = JAK2 (Homo sapiens, UniProt O60674); assay: JAK2 IC50 measurement

SMILES | GI50 (TYK2 [1]) | GI50 (JAK1 [2]) | pIC50 (TYK2 [3]) | pIC50 (JAK1 [4]) | Selectivity for JAK1 TYK2/JAK1 (TYK2 [3]; ratio of IC50 values) | Selectivity for JAK1 JAK3/JAK1 (JAK3) | Selectivity for JAK1 JAK2/JAK1 (JAK2)
CNC(=O)c1cnc2[nH]ccc2c1N[C@@H]1CCN(Cc2cccc(OC)c2)C[C@@H]1F (relative stereo) [Compound 21b, 4-((cis-3-Fluoro-1-(3-methoxybenzyl)piperidin-4-yl)amino)-N-methyl-11H-pyrrolo[2,3-b]pyridine-5-carboxamide] | 8.24 µM | 0.178 µM | 6.94 | 9.11 |  |  | 
CNC(=O)c1cnc2[nH]ccc2c1NC1CC2CCC(C1)N2Cc1cccc(C#N)c1 (centres unmarked) [Compound 17f, 4-((8-(3-Cyanobenzyl)-8-azabicyclo[3.2.1]octan-3-yl)amino)-N-methyl-1H-pyrrolo[2,3-b]pyridine-5-carboxamide] |  |  |  | 8.12 | 12.0 | 5.83 | 7.66

pIC50: −log10 of the molar value.
